## AlphaSeq binding of Ab-91 heavy chain variants to a spike HR2 peptide

Values reported by Engelhart et al. 2022, doi:10.1038/s41597-022-01779-4 (FLAb copy).

The target is the same throughout: PDVDLGDISGINAS, from the HR2 region of SARS-CoV-2 spike.

Parent: Ab-91, a human scFv built as VL, a (GGGGS)3 linker, VH. Only the CDRs of the heavy chain vary.
VL: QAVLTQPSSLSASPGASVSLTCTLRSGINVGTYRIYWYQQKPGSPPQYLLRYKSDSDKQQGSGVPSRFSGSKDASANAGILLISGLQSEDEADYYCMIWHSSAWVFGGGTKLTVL
VH: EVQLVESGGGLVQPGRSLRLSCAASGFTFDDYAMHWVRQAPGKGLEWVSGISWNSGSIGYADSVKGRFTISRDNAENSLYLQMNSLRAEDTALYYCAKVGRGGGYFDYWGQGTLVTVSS

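The parent was found by panning a naive human phage display library on the peptide. Variants in AAYL51 differ from the parent at up to three CDR positions; double and triple changes were sampled at random. AlphaSeq pools MATa yeast showing the antibodies with MATalpha yeast showing the peptide. The frequency of each diploid, read from paired DNA barcodes, reflects how well the two displayed proteins bind. Read counts were normalised to the haploid input and turned into Kd by a linear fit to BCL2-family pairs of known affinity, for each replicate. Mating was done three times.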

The parent's heavy chain CDRs are GFTFDDYAMH, GISWNSGSIGYADSVK, VGRGGGYFDY; each variant's own CDRs replace them letter for letter. The read-out is the apparent dissociation constant on a log10 scale (nM): the lower, the stronger. The mean shown is taken over the replicates in which the pair was detected. "no signal" marks a missing value. The strain was present, yet no cells mated with the target were sequenced in any replicate, which points to weak or no binding. As a blank, each scFv also met three strains without target: over library AAYL51, 21% of these pairings were detected, typically at 4.54 and seldom below 3.26.

CDR-H1,CDR-H2,CDR-H3,mean log10 Kd (nM),seen in
GFTFDDYAMH,GISGNSGSIGYADSVK,VGRGSGYFDY,4.93,2 of 3
GFTFDDYAMH,GISWNPGSIGYADSDK,FGRGGGYFDY,4.71,1 of 3
GVTFDDYAMH,GMSWNSGSIGYADSVR,VGRGGGYFDY,4.43,3 of 3
GFTYDDYAMH,GISWNSGSIQYADSVK,VGRGGGHFDY,no signal,0 of 3
YFTFDDYAMH,TPSWNSGSIGYADSVK,VGRGGGYFDY,5.08,1 of 3
GFTFDDYAMH,GISWNSGSIGYADEPK,VGRGGGYFDY,4.74,2 of 3
GFTFDYYATH,GISWNSGSIGNADSVK,VGRGGGYFDY,no signal,0 of 3
GFTFDDYAMH,GIDWNVGSIGYADSVK,VGRGGGVFDY,3.93,3 of 3
GFTFDDYAMH,GCSWNSGSIGYADCVK,VKRGGGYFDY,4.00,1 of 3
GFTFDDYAMH,GISWNSGCNGYADSVK,VGRGGGYCDY,2.89,1 of 3
GFTFDDYAMH,GISWLSGSIGYGDSVK,VGRGGGYFDY,no signal,0 of 3
GFTFDDYRMW,GISWNSGSIGYADSVK,VGRGGGYFDY,5.10,3 of 3
RFTFDDYAFH,GISWNMGSIGYADSVK,VGRGGGYFDY,no signal,0 of 3
GFTQDDYAMH,GISWNSGSIYYADSVK,FGRGGGYFDY,no signal,0 of 3
GFTFDDYAMH,GISWNSQSIGYADSVK,VGRGGVYFDS,no signal,0 of 3
GFTFDSYAMH,GISWNSFSIGYADSVP,VGRGGGYFDY,4.19,1 of 3
GFTFDDYAMH,GISWNSGSIGYAWSVK,VFRGGGYFDY,5.14,3 of 3
GFTFDDYAGA,GISWNSGSIGLADSVK,VGRGGGYFDY,3.95,1 of 3
GFTFDDYAMH,GISLNSGSIGYADSTK,VGRGGVYFDY,4.79,1 of 3
GFTFDDQAMH,GISANSGSIGYADSVK,VGRGGGRFDY,4.61,1 of 3
GFTFDDYAAH,GISWNSGSIGYADSVK,VKCGGGYFDY,5.09,2 of 3
GFTFFDPAMH,GISWNSGSIGYADSVK,VGRGGDYFDY,no signal,0 of 3
GFTFDDYAMH,LISWNSGSIGYADSVK,VGFGGGYWDY,no signal,0 of 3
GFTFDDYLMH,GISWNSGSIGYADCVV,VGRGGGYFDY,no signal,0 of 3
SFTFDDYAMH,GISWNSGSIGYADSVK,VGRYGGYFDY,no signal,0 of 3
GKTFDDYAMH,GISWNSGSIGYADSQK,VGRGGGYFDY,4.29,2 of 3
GFTFDDAALH,GGSWNSGSIGYADSVK,VGRGGGYFDY,no signal,0 of 3
KFTFDDYAMH,GISWNSGSIGYADSVK,IGCGGGYFDY,4.25,1 of 3
GFTFDDYAMH,GISWNSGSIGYRDSVK,VGRGGGYFSY,4.32,3 of 3
GFTFDDYAMH,GISMNSFSIGYADSVK,VGGGGGYFDY,2.53,3 of 3
GFTFDIYAMH,GISWNLGQIGYADSVK,VGRGGGYFDY,5.67,1 of 3
GFTFDDYTMH,GISWNSGSIGYADSVK,VGRGGGYMDY,no signal,0 of 3
GFTFDGYAMH,NISWNSGSIGYADSVK,VGRGGGYFDY,no signal,0 of 3
GFTFDDYAMH,GISWNSGCIGYADSVK,VGRGGGYQDY,4.61,2 of 3
GFTFIDYACH,GISWNSGSIGYADSVK,VGRGGGYFDR,4.64,1 of 3
GFTFDDYAMH,GISWNSGSIGYADSVF,VFRGGGFFDY,1.01,3 of 3
GFTFDGYAMH,GISWNSGSIGYADSRK,VGRGGCYFDY,no signal,0 of 3
GFTFDDYAMH,GISWNSGTIGYADSVF,VGRGGGYFFY,2.63,3 of 3
GFTFDDYAMH,GESWNKGSIGYADSVK,VGRGPGYFDY,no signal,0 of 3
GFTFDDYMMH,GISWNSGSIGYADSVK,PGRGPGYFDY,4.69,1 of 3
GFTFDDYAMH,GISWNSGIIGIADSVV,VGRGGGYFDY,no signal,0 of 3
GFTFDDYAMH,GISWNSGGIGYADSVK,VGRGGGIFVY,5.71,1 of 3
FFTFADYAMH,GISWRSGSIGYADSVK,VGRGGGYFDY,5.25,1 of 3
GFTFFDLAMH,GISWNSGSIGYADSVK,VGRGGGYFDY,no signal,0 of 3
GPTFDDYPMH,GISWHSGSIGYADSVK,VGRGGGYFDY,no signal,0 of 3
GFTFDDYAMQ,GIEWNSGSIGYAESVK,VGRGGGYFDY,4.76,2 of 3
GFTFDDYAMH,PISWNSGSITYADSVK,VGRGGGYFIY,4.92,3 of 3
GFTFDDYQMH,GISWNSGSIGYADSFK,VGRGGGYFDY,2.12,3 of 3
GFTFDDYAMH,GIAWNSGSIGYADHVK,VGRGGGTFDY,no signal,0 of 3
GFTWDDYAMH,YISWNSGSIGYADSVK,VGRGGGYFDR,no signal,0 of 3
GFTFDDYAMH,GISHNSGSIGYADSVK,VGRGGGYFDV,0.81,3 of 3
GFCFDDYAMH,GISWNSGSIGHADSVK,VGRGGGYFDY,no signal,0 of 3
KFTFDDYAMH,GISWNSGSIGYADSVK,HGRGGRYFDY,4.91,3 of 3
GFTFPDYAMH,GISFNSGSIGYADSHK,VGRGGGYFDY,3.51,3 of 3
GFTFDDYAMH,AISWWSGSIGYADSVK,YGRGGGYFDY,no signal,0 of 3
IFTFDDYAMA,DISWNSGSIGYADSVK,VGRGGGYFDY,no signal,0 of 3
GFTFDDYAMD,GISLNSGSIGYADSVK,VGRGGGYFDE,no signal,0 of 3
YFTFDDEAMH,GISWNSGSIGYADSVK,VGRGGGYFSY,no signal,0 of 3
GFTFADYAMH,GISWNSGSIGYADYVK,VGRGGGYFVY,no signal,0 of 3
GFSFDDYAMH,GISWNSGSIGYADSVK,VGRGGGYFDK,1.16,3 of 3

A selection of 7 entries from above:

CDR-H1,CDR-H2,CDR-H3,mean log10 Kd (nM),seen in
GFTFDDQAMH,GISANSGSIGYADSVK,VGRGGGRFDY,4.61,1 of 3
GFTFDGYAMH,NISWNSGSIGYADSVK,VGRGGGYFDY,no signal,0 of 3
GFTFDDYLMH,GISWNSGSIGYADCVV,VGRGGGYFDY,no signal,0 of 3
GVTFDDYAMH,GMSWNSGSIGYADSVR,VGRGGGYFDY,4.43,3 of 3
KFTFDDYAMH,GISWNSGSIGYADSVK,IGCGGGYFDY,4.25,1 of 3
GFTFDDAALH,GGSWNSGSIGYADSVK,VGRGGGYFDY,no signal,0 of 3
GFTFDDYAMH,GISWNSGTIGYADSVF,VGRGGGYFFY,2.63,3 of 3

In this assay the parent's reference entry averaged 1.86; its copy inside this library read 0.88.